The source of these data is patent US7989450B2, “Functionalized diarylisoxazoles inhibitors of ciclooxygenase” (Universita' Degli Studi Di Bari, priority 2008, dated 2011).

Sequences of proteins named here, by UniProt entry; tags and fusion partners are left off. Residues count along the entry.
UniProt P23219, 24-599: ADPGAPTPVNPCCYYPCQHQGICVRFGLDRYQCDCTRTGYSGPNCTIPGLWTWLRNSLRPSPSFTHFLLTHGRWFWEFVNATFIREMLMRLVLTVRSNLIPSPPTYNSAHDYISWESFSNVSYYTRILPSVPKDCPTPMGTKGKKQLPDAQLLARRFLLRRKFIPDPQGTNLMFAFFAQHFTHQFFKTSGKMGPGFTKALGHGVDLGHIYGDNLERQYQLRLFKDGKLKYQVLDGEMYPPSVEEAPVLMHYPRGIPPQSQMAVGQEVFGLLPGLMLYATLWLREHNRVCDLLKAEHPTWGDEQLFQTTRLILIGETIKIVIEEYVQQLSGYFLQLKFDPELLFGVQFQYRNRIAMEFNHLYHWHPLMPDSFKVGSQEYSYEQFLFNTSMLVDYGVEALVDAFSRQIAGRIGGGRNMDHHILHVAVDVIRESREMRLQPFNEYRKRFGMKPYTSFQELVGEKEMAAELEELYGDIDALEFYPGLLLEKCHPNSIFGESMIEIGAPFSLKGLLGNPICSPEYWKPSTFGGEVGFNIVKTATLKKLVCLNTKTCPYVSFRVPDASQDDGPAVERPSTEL

In the assay the target is platelet COX-1 (Homo sapiens, UniProt P23219). Kind of assay: Biosynthesis of TXB2 in human whole blood left to coagulate, index of platelet COX-1 activity. Conditions: read-out: COX-1 IC50; human whole blood method, coagulation 1 hour at 37° C., TXB2 by RIA.

As for `Cc1onc(-c2ccccc2)c1-c1ccc(S(N)(=O)=O)cc1` [Valdecoxib, reference compound], the IC50 stood at 27 µM.

For orientation: IC50 means the concentration that gives 50% inhibition.
